Reference: ChEMBL document CHEMBL1143357, “Synthesis and biological activities of high affinity taxane-based fluorescent probes” (Bioorg Med Chem Lett, 2009)

Experiment: Binding affinity to paclitaxel binding site of microtubule

Row | SMILES | Ka [×10⁸ /M]
1 | COc1cccc(C(=O)O[C@H]2[C@@H]3[C@]4(OC(C)=O)CO[C@@H]4C[C@H](OC(=O)[C@H](C)NC(=O)c4ccc(-c5c6ccc(=O)cc-6oc6cc(O)ccc56)c(C(=O)O)c4)[C@@]3(C)C(=O)[C@H](OC(C)=O)C3=C(C)[C@@H](OC(=O)[C@H](O)[C@@H](NC(=O)c4ccccc4)c4ccccc4)C[C@]2(O)C3(C)C)c1 | 4.4
2 | COc1cccc(C(=O)O[C@H]2[C@@H]3[C@]4(OC(C)=O)CO[C@@H]4C[C@H](OC(=O)[C@H](C)NC(=O)c4ccc(-c5c6cc(F)c(=O)cc-6oc6cc(O)c(F)cc56)c(C(=O)O)c4)[C@@]3(C)C(=O)[C@H](OC(C)=O)C3=C(C)[C@@H](OC(=O)[C@H](O)[C@@H](NC(=O)c4ccccc4)c4ccccc4)C[C@]2(O)C3(C)C)c1 | 6.8
3 | C/C=C(\C)C(=O)N[C@@H](c1ccccc1)[C@@H](O)C(=O)O[C@H]1C[C@@]2(O)[C@@H](OC(=O)c3cccc(N=[N+]=[N-])c3)[C@@H]3[C@]4(OC(C)=O)CO[C@@H]4C[C@H](OC(=O)[C@H](C)NC(=O)c4ccc(-c5c6ccc(=O)cc-6oc6cc(O)ccc56)c(C(=O)O)c4)[C@@]3(C)C(=O)[C@H](OC(C)=O)C(=C1C)C2(C)C | 12
